# According to patent publication US10869922B2 (priority 2016, dated 2020):
# Tested on: C57BL/6 mouse primary bone marrow DC
# Details: high NaCl concentration
smiles,measurement,setting,value
"[Cl-].[Na+] [NaCl, sodium chloride]",DC maturation,"48 h, FIG. 7",promote
same,expression of CD80 on DC surface,"48 h, flow cytometry, FIG. 7",increase
same,expression of CD86 on DC surface,"48 h, flow cytometry, FIG. 7",increase
same,expression of MHCII on DC surface,"48 h, flow cytometry, FIG. 7",increase
same,DCs' phagocytosis of the antigen,FIG. 8,promote
same,release of inflammatory cytokine IL1b in mRNA and protein levels,FIG. 9,increase
same,release of inflammatory cytokine IL6 in mRNA and protein levels,FIG. 9,increase
